{
  "source": "patent US4049795A",
  "about": "“Treatment of hemorrhagic shock” (priority 1974, dated 1977)",
  "system": "rats",
  "assay": "Toxicity, intraperitoneal injection in rats",
  "data": [
    {"smiles": "O=C(CO)CO", "note": "[dihydroxyacetone]", "values": [
      {"measurement": "deaths, repeated injection every 4 hours or every 3 hours", "setting": "4.5 g/kg every 4 hours (first group) and every 3 hours (second group), 10 test animals", "value": "no deaths"},
      {"measurement": "deaths, daily injection", "setting": "7 g/kg intraperitoneally daily, five rats", "value": "None of the animals died"},
      {"measurement": "signs noted when toxic doses were administered", "setting": "toxic doses, rats", "value": "tremor and clonic spasms"}
    ]}
  ]
}
